# Binding of CDR-mutated scFvs to a peptide of the spike HR2 region

The measurements come from Engelhart et al. 2022 (doi:10.1038/s41597-022-01779-4) through the FLAb antibody collection.

Target peptide (SARS-CoV-2 spike, HR2 region): PDVDLGDISGINAS

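The starting antibody came from a phage panning campaign against this peptide. Variants in AAYL51 differ from the parent at up to three CDR positions; double and triple changes were sampled at random. The assay is AlphaSeq: two haploid yeast populations carry antibody and antigen on their surface. After mating in shaken culture at 30 °C for 16 h, diploids were selected and their barcode pairs sequenced. Read counts were normalised to the haploid input and turned into Kd by a linear fit to BCL2-family pairs of known affinity, for each replicate. Mating was done three times.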

Each scFv is VL, a (GGGGS)3 linker, VH, as in the parent Ab-91, and differs from it in the CDRs of the heavy chain only.
VL: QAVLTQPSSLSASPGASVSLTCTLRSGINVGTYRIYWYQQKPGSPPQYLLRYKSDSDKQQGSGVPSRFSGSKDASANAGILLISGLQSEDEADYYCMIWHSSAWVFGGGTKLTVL
VH: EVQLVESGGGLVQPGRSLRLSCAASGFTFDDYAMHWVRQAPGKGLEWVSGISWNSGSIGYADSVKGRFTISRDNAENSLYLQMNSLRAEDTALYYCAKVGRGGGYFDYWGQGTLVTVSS

Sequences are complete VH domains.
Numbers give log10(Kd / nM), so 0 is 1 nM and 3 is 1 µM. Smaller is tighter.
Averages over replicates are reported, and they cover detected replicates only.
A pair that was not seen in that replicate is written "nd"; this usually means weak binding, but a binder can also be missed.

{"VH": "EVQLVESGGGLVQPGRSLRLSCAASGFTTDDYAMPWVRQAPGKGLEWVSGISWKSGSIGYADSVKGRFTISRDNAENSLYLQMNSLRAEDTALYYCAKVGRGGGYFDYWGQGTLVTVSS", "log10 Kd, replicates": "nd / nd / nd", "log10 Kd (nM), mean": "nd", "control signals": "1/9 (4.09)"}
{"VH": "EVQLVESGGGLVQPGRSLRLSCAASGFTFDDYASHWVRQAPGKGLEWVSVISWTSGSIGYADSVKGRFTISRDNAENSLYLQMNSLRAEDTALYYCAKVGRGGGYFDYWGQGTLVTVSS", "log10 Kd, replicates": "nd / nd / nd", "log10 Kd (nM), mean": "nd", "control signals": "1/9 (3.97)"}
{"VH": "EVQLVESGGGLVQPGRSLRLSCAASGFTFDDFAMHWVRQAPGKGLEWVSGISWNQGSIGYADCVKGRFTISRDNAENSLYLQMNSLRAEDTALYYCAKVGRGGGYFDYWGQGTLVTVSS", "log10 Kd, replicates": "nd / nd / nd", "log10 Kd (nM), mean": "nd", "control signals": "2/9 (4.07)"}
{"VH": "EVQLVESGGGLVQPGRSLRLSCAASGFTFDDYAMHWVRQAPGKGLEWVSGISHNSGSIGYADVVKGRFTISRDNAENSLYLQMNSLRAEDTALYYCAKVGRGFGYFDYWGQGTLVTVSS", "log10 Kd, replicates": "4.73 / 4.23 / 4.09", "log10 Kd (nM), mean": "4.35", "control signals": "5/9 (4.13)"}
{"VH": "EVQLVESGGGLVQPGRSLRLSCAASGFTFNDGAMHWVRQAPGKGLEWVSGHSWNSGSIGYADSVKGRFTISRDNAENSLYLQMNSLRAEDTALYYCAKVGRGGGYFDYWGQGTLVTVSS", "log10 Kd, replicates": "nd / nd / 5.24", "log10 Kd (nM), mean": "5.24", "control signals": "2/9 (4.76)"}
{"VH": "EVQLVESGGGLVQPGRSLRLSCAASGFTFDDYAMHWVRQAPGKGLEWVSGIWWNSGSIGYADSPAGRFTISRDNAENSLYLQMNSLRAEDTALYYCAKVGRGGGYFDYWGQGTLVTVSS", "log10 Kd, replicates": "4.28 / nd / nd", "log10 Kd (nM), mean": "4.28", "control signals": "1/9 (5.16)"}
{"VH": "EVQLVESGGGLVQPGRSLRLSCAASGFTFDDYAMGWVRQAPGKGLEWVSGISWNSGSIGYADSSKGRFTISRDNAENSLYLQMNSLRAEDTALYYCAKVGRGGGYFDYWGQGTLVTVSS", "log10 Kd, replicates": "nd / 5.18 / nd", "log10 Kd (nM), mean": "5.18", "control signals": "4/9 (4.46)"}
{"VH": "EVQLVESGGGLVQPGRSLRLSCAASGFTIDDYAMHWVRQAPGKGLEWVSGITWNSGDIGYADSVKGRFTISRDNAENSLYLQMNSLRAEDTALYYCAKVGRGGGYFDYWGQGTLVTVSS", "log10 Kd, replicates": "nd / nd / nd", "log10 Kd (nM), mean": "nd", "control signals": "0/9"}
{"VH": "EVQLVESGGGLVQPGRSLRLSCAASGFTFDDYAMHWVRQAPGKGLEWVSTISWNSGSIDKADSVKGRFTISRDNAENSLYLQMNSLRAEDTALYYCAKVGRGGGYFDYWGQGTLVTVSS", "log10 Kd, replicates": "nd / nd / nd", "log10 Kd (nM), mean": "nd", "control signals": "0/9"}
{"VH": "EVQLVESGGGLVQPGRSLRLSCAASGFTFDDYAMHWVRQAPGKGLEWVSGISWNSPVIGYADSVKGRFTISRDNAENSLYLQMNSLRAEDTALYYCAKVGRGGGYFDLWGQGTLVTVSS", "log10 Kd, replicates": "2.70 / 2.65 / 2.72", "log10 Kd (nM), mean": "2.69", "control signals": "4/9 (4.19)"}
{"VH": "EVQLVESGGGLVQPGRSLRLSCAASGFTFDWYAWHWVRQAPGKGLEWVSGISWNSGSIGYADSVKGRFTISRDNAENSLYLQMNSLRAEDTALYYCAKWGRGGGYFDYWGQGTLVTVSS", "log10 Kd, replicates": "nd / nd / nd", "log10 Kd (nM), mean": "nd", "control signals": "0/9"}
{"VH": "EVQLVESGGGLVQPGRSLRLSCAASGFTFDDYAMHWVRQAPGKGLEWVSGISWNSGSIYYADSVKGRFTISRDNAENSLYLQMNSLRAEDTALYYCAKVGRGGVYEDYWGQGTLVTVSS", "log10 Kd, replicates": "nd / nd / 1.51", "log10 Kd (nM), mean": "1.51", "control signals": "0/9"}
{"VH": "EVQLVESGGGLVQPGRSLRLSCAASKFKFDDYAMHWVRQAPGKGLEWVSGISWNSGSIGYADSVKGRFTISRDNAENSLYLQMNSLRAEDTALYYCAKVGNGGGYFDYWGQGTLVTVSS", "log10 Kd, replicates": "1.71 / 1.81 / 1.60", "log10 Kd (nM), mean": "1.71", "control signals": "6/9 (4.46)"}
{"VH": "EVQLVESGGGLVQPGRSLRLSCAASGFLFDWYAMHWVRQAPGKGLEWVSSISWNSGSIGYADSVKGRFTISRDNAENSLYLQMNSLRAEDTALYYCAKVGRGGGYFDYWGQGTLVTVSS", "log10 Kd, replicates": "4.23 / nd / 4.79", "log10 Kd (nM), mean": "4.51", "control signals": "6/9 (5.09)"}
{"VH": "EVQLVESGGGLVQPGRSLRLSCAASGFTNDDYAMHWVRQAPGKGLEWVSGISWNSGSIGYADSKKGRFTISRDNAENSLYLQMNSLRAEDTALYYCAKVGRCGGYFDYWGQGTLVTVSS", "log10 Kd, replicates": "4.90 / nd / nd", "log10 Kd (nM), mean": "4.90", "control signals": "0/9"}

Picked from the list: the 2 lowest averages where every replicate gave a value.

{"VH": "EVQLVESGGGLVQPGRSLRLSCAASKFKFDDYAMHWVRQAPGKGLEWVSGISWNSGSIGYADSVKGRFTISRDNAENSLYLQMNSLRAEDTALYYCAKVGNGGGYFDYWGQGTLVTVSS", "log10 Kd, replicates": "1.71 / 1.81 / 1.60", "log10 Kd (nM), mean": "1.71", "control signals": "6/9 (4.46)"}
{"VH": "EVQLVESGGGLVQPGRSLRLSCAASGFTFDDYAMHWVRQAPGKGLEWVSGISWNSPVIGYADSVKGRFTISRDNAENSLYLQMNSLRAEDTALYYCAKVGRGGGYFDLWGQGTLVTVSS", "log10 Kd, replicates": "2.70 / 2.65 / 2.72", "log10 Kd (nM), mean": "2.69", "control signals": "4/9 (4.19)"}

Background: pairings of library AAYL51 with three empty control strains gave a value in 21% of cases (median 4.54, 5th percentile 3.26). Values in that range, when seen in few replicates, are hard to tell from nonspecific mating. Also given: how often the same scFv was detected with the empty control strains, with their mean in brackets.